# From patent US10792311B2, “Stimulation of ovarian follicle development and oocyte maturation” (The Board of Trustees of the Leland Stanford Junior …, priority 2011, dated 2020)
# Assays:
# ovaries from day 10 mice [1] = assay: Ovarian explant cultures treated with CNP and/or FSH; type: cell-based
# Experimental: Ovarian explant cultures: Ovaries from day 10 mice were placed on culture plate inserts (Millipore, Bedford, Mass.) and cultured in 400 μl of DMEM/F12 containing 0.1% BSA (Sigma), 0.1% Albumax II, insulin-transferrin-selenium, 0.05 mg/ml L-ascorbic acid and penicillin-streptomycin under the membrane insert to cover ovaries with a thin layer of medium. Ovaries were treated with CNP and/or FSH with media changes every 2 days for 4 days. Some explants were also treated with a pan-specific protein kinase G inhibitor, Rp-8-Br-PET-cGMPS (BioLog, Bremen, Germany). At the end of culture, ovaries were fixed in Bouin's solution, paraffin embedded, and cut into continuous sections before staining with hematoxylin and eosin.
# [2] = native FSH; cited from earlier work
# ovaries from day 10 mice [3] = assay: Ovarian explant cultures treated with R-spondin2 and/or FSH; type: cell-based
# Experimental: Ovarian explant cultures: Ovaries from day 10 mice were placed on culture plate insert (Millipore, Bedford, Mass.) and cultured in 400 μl of DMEM/F12 (Gibco) containing 0.1% BSA (Sigma), 0.1% Albumax II (Gibco), insulin-transferrin-selenium (Gibco), 0.05 mg/ml L-ascorbic acid (Sigma) and penicillin-streptomycin (Gibco) under the membrane insert to cover ovaries with a thin layer of medium. […] Explants treated with non-immune IgG or boiled (100 C, 15 min) R-spondin2 antibodies served as negative controls. At the end of culture, ovaries were fixed in Bouin's solution, paraffin embedded, and cut into continuous sections before staining with hematoxylin and eosin. Only follicles with clearly stained oocyte nucleus were counted to prevent recounting of the same follicle.
# [4] = system: canonical Wnt signaling pathway; assay: TCF-luciferase assay in cultured ovarian somatic cells; type: cell-based; conditions: somatic cells of day 10 mice, agent alone, 18 h
# Experimental: TCF-luciferase assay: Ovarian somatic cells from day 10 mice were cultured overnight at 37 C in McCoy's 5a medium containing 10% fetal bovine serum (FBS; Gibco) before evaluation of Wnt signaling based on the TCF-luciferase assay. Cells were transfected with 1 μg of pTOP FLASH or pFOP FLASH plasmid together with 0.1 μg of pRL-TK plasmid using lipofectamine 2000 (Invitrogen, Carlsbad, Calif.) for 6 h. After culturing in McCoy's 5a medium containing 10% FBS overnight, cells were cultured in serum-free medium for 8 h and treated with R-spondin2, Wnt3a, and/or FSH for 18 h. Luciferase activity expressed as relative light unit was determined using a Dual Luciferase Reporter Assay Kit (Promega) with a luminometer (Bio-Rad).
# Treatment with R-spondin2 stimulated the canonical Wnt signaling pathway and proliferation of ovarian somatic cells To monitor the activation of the canonical Wnt signaling pathway, somatic cells were obtained from ovaries of day 10 mice and transfected with TCF-luciferase reporter plasmids before treatment with R-spondin2, Wnt3a, and/or FSH for 18 h. Luciferase activity was measured as an index of Wnt signaling. […] To estimate the number of viable cells, cells were also cultured with increasing doses of R-spondin2 with or without Wnt3a before measurement of mitochondrial reductase (MTS) activity.
# [5] = system: somatic cells obtained from day 10 ovaries; assay: Cell proliferation (MTS) assay of ovarian somatic cells; type: cell-based, mice; conditions: agent alone, 2 days
# Experimental: Cell proliferation assay: Ovaries obtained from day 10 mice were digested with collagenase I, DNase, and trypsin. After centrifuging at 270×g for 10 min., cell pellet was washed and plated in a 96-well plate (BD Falcon, Franklin Lakes, N.J.) in McCoy's 5a medium (Gibco BRL, Grand Island, N.Y.) containing 4 mg/ml BSA (Sigma Aldrich Chemicals, St. Louis, Mo.), penicillin-streptomycin (Gibco) and sodium pyruvate (Gibco) for 3 h at 37 C. After washing twice with PBS to remove floating oocytes, cells were cultured in serum-free McCoy's 5a medium containing different factors for 48 h. MTS (3-(4,5-dimethylthiazol-2-yl)-5-(3-carboxymethoxyphenyl)-2-(4-sulfophenyl)-2H-tetrazolium) assay was performed using Cell Titer 96 Aqueous One Solution Cell Proliferation Assay (Promega, Madison, Wis.) by adding the substrate for 2 h before measuring absorbance at 490 nm.
# [6] = treatment with R-spondin2 and/or FSH
substance,measurement,setting,value
"FSH: Follicle-stimulating hormone, a dimeric glycoprotein",Development of preantral follicles (histological analyses),ovaries from day 10 mice [1]; 4 days culture,promoted the development of preantral follicles
same,Ovarian weights of explants,"ovaries from day 10 mice [1]; day 10 ovaries, 4 days culture",increased ovarian weights
same,NPPC transcript levels,"ovaries from day 10 mice [1]; real-time RT-PCR, 2 and 4 days after treatment",increases in NPPC transcript levels
same,NPRB transcript levels,"ovaries from day 10 mice [1]; real-time RT-PCR, explant culture",no changes in NPRB transcript levels
same,half-life,[2],3 to 4 h
same,Ovarian follicle development (morphological analyses),ovaries from day 10 mice [3]; 4 days culture,promotion of ovarian follicle development
same,Percentage of primordial and degenerated follicles,ovaries from day 10 mice [3]; [6],negligible changes
same,Ratio of primary and percentage of secondary follicles,ovaries from day 10 mice [3]; [6],decreased the ratio of primary follicles accompanied by increases in the percentage of secondary follicles
same,TCF-luciferase activity,[4],ineffective
same,MTS activity (viable cell number),[5],increased the viable cell numbers
